Our source for the IC50 values is US8551988B2, “Benzimidazole derivatives: preparation and pharmaceutical applications” (Mei Pharma, Inc., priority 2003, dated 2013).

Chains of the proteins cited; added tags and fusions are not shown. Lines headed by an entry give the natural chain unless they say otherwise; changes in a name come on top.
UniProt Q9BY41: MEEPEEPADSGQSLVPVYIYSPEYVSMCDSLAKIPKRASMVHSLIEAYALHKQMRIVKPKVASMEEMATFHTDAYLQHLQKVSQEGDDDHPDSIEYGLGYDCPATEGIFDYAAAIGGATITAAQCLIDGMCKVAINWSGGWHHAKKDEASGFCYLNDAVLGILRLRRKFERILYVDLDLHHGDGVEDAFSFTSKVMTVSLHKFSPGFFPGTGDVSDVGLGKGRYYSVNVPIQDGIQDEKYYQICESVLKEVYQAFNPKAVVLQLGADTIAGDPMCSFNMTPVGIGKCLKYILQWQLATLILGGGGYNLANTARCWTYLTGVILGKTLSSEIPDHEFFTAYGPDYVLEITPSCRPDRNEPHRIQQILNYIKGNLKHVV

The test deals with HDAC8 enzyme (recombinant GST-HDAC8) (Homo sapiens (Human), UniProt Q9BY41). The test can be described thus: In vitro HDAC assay (BIOMOL fluorescent-based HDAC activity assay), HDAC8. Type of test: biochemical.

A word on the IC50: it is the point on the concentration scale where inhibition reaches its midpoint. For `O=C(/C=C/c1ccc2c(c1)nc(CCc1ccccc1)n2CCc1ccccc1)NO` [Compound 26, N-Hydroxy-3-(1,2-Diphenethyl-1H-benzimidazol-5-yl]-acrylamide], the 50% inhibitory concentration (IC50) was 1000 nM.
